# Reference: PubChem BioAssay AID758 (NMMLSC, 2007)
# This is a selection; strong and weak results do not stand in their true shares. Activity calls are given as the source filed them.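 Rule for the calls: active = fluorescent GTP binding to Rab7 beads changed by at least 20 points from the 100% baseline, either direction, mostly lower; inconclusive = compound itself probably fluorescent, or too few beads counted; inactive = the rest.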
# Test system: Rab7 GTPase wild type (dog), Bodipy-FL-GTP binding
# Experiment: wildtype dog Rab7 nucleotide binding alteration – biochemical, multiplex bead flow cytometry, primary screen (AID 758);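 note: median green fluorescence of bound Bodipy-FL-GTP per Rab7 bead population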
# Conditions: GST-Rab7 beads, fluorescent GTP binding, at 10 µM, actives lie on both sides, untreated = 100%, excess cold GTP = 0%
row,SMILES,GTP binding activity (percent of control)
1,CCOC(=O)N1CCC(Nc2ccc(OC)cc2)CC1,inactive: 106%
2,O=C(OC1CN2CCC1CC2)C1c2ccccc2Oc2ccccc21 (centres undefined),inactive: 98%
3,O=C(NCC1(N2CCOCC2)CCCCC1)c1cc2ccccc2o1,inactive: 96%
4,COc1ccc(C(=O)NCC2(N3CCCCC3)CCCCC2)c(OC)c1OC,inactive: 98%
5,COc1ccc(NC2CCN(CCc3ccccc3)CC2)c(OC)c1,inactive: 98%
6,COc1ccc(NC2CCN(C(=O)OC(C)(C)C)CC2)cc1,inactive: 97%
7,CN1CCN(CCOC(=O)C(O)(c2ccccc2)c2ccccc2)CC1,inactive: 104%
8,O=C(NCC1(N2CCOCC2)CCCCC1)c1cc(=O)[nH]c2ccccc12,inactive: 102%
9,O=C(NCC1(N2CCCCC2)CCCCC1)c1cccc([N+](=O)[O-])c1,inactive: 97%
10,N#CC1(Nc2ccccc2)CCN(CCc2ccccc2)CC1,inactive: 105%
11,COc1ccc(CN(CCCl)CCCl)cc1Cl,inactive: 97%
12,CN(C)c1cccc(C(=O)NCC2(N3CCCCC3)CCCCC2)c1,inactive: 103%
13,CC(C)c1ccc(NC2CCN(C(=O)OC(C)(C)C)CC2)cc1,inactive: 97%
14,O=C(OC1CN2CCC1CC2)C1c2ccccc2C=Cc2ccccc21 (centres undefined),inactive: 104%
15,N/C(=N\O)c1c(N)no[n+]1[O-],inactive: 93%
16,COc1ccc(C(=O)NCC2(N3CCOCC3)CCCCC2)cc1OC,inactive: 98%
17,c1ccc(CN2CCC(Nc3ccccc3)CC2)cc1,inactive: 95%
18,N#Cc1ccc(C(=O)NCC2(N3CCCCC3)CCCCC2)cc1,inactive: 105%
19,CN(C)c1ccc(C(=O)NCC2(N3CCCCC3)CCCCC2)cc1,inactive: 103%
20,CCN1CCC(Nc2cccc(F)c2)CC1,inactive: 98%
21,Fc1ccccc1NC1CCN(Cc2ccccc2)CC1,inactive: 103%
22,COc1cc(OC)cc(C(=O)NCC2(N3CCOCC3)CCCCC2)c1,inactive: 92%
23,CC(C)(C)OC(=O)N1CCC(Nc2ccccc2)CC1,inactive: 99%
24,CCOc1ncccc1C(=O)NCC1(N2CCOCC2)CCCCC1,inactive: 100%
